Data: ChEMBL document CHEMBL4834434, “Discovery of Novel and Potent N-Methyl-d-aspartate Receptor Positive Allosteric Modulators with Antidepressant-like Activity in Rodent Models” (J Med Chem, 2021)

Amino acid sequences for entries named in this document (tags omitted). A change or cut given only in a name is not applied to a line headed by its entry.
UniProt Q91ZU9: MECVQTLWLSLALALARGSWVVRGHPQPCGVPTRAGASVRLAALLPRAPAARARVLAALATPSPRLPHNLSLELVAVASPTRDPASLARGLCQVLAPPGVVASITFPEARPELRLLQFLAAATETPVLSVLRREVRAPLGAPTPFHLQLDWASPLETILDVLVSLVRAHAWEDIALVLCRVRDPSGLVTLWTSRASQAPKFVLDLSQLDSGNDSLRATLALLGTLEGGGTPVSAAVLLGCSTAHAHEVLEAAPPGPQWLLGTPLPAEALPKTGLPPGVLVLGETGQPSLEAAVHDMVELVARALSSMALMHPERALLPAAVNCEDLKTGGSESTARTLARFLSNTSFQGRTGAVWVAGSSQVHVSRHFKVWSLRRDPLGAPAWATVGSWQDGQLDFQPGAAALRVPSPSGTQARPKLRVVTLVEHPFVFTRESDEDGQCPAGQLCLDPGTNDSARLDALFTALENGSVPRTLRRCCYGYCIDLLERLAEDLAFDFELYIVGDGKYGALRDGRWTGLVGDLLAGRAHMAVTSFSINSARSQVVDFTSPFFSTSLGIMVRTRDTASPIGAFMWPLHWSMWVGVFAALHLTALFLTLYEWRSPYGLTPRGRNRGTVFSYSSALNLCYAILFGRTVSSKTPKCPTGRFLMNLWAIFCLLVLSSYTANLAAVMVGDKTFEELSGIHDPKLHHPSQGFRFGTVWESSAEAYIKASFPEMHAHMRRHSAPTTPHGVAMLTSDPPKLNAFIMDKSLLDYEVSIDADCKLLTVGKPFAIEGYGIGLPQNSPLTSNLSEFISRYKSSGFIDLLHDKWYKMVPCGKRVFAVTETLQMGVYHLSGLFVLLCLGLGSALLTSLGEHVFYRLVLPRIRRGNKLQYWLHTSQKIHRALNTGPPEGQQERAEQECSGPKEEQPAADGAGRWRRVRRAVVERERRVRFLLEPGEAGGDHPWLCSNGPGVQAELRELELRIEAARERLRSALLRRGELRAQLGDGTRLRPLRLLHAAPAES
UniProt Q03391: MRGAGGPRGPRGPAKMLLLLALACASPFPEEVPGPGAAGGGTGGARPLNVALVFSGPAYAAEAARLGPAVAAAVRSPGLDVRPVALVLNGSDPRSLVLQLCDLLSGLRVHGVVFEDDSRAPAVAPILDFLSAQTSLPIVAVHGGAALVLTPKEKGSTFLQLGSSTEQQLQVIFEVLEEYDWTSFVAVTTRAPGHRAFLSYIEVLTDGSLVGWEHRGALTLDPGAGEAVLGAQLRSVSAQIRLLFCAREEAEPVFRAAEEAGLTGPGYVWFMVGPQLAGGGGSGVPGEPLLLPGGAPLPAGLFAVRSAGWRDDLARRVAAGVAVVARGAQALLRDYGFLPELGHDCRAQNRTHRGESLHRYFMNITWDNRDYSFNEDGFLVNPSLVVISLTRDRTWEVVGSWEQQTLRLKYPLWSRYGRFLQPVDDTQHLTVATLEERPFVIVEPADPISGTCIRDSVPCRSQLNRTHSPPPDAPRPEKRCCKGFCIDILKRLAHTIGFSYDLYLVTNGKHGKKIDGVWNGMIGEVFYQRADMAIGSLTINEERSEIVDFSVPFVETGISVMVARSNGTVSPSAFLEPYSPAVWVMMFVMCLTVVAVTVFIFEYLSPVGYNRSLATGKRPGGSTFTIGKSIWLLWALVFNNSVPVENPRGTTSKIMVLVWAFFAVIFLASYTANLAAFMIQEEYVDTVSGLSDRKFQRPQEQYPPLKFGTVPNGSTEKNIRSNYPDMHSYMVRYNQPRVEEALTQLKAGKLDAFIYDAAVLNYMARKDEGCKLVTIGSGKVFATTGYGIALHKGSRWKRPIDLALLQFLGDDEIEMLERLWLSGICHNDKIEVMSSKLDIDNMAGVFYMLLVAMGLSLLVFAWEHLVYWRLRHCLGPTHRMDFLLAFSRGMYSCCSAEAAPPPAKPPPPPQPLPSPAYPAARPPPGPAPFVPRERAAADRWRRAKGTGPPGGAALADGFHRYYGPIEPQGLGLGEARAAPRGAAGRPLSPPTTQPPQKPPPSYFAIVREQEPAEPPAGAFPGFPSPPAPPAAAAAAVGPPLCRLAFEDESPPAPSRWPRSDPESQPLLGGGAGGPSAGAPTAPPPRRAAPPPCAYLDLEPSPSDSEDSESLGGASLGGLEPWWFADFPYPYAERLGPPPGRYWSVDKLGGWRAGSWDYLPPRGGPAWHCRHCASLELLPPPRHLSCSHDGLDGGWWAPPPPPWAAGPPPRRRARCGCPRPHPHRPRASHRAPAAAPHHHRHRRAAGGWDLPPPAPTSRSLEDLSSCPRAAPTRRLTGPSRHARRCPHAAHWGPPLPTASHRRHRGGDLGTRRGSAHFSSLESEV
UniProt Q01097: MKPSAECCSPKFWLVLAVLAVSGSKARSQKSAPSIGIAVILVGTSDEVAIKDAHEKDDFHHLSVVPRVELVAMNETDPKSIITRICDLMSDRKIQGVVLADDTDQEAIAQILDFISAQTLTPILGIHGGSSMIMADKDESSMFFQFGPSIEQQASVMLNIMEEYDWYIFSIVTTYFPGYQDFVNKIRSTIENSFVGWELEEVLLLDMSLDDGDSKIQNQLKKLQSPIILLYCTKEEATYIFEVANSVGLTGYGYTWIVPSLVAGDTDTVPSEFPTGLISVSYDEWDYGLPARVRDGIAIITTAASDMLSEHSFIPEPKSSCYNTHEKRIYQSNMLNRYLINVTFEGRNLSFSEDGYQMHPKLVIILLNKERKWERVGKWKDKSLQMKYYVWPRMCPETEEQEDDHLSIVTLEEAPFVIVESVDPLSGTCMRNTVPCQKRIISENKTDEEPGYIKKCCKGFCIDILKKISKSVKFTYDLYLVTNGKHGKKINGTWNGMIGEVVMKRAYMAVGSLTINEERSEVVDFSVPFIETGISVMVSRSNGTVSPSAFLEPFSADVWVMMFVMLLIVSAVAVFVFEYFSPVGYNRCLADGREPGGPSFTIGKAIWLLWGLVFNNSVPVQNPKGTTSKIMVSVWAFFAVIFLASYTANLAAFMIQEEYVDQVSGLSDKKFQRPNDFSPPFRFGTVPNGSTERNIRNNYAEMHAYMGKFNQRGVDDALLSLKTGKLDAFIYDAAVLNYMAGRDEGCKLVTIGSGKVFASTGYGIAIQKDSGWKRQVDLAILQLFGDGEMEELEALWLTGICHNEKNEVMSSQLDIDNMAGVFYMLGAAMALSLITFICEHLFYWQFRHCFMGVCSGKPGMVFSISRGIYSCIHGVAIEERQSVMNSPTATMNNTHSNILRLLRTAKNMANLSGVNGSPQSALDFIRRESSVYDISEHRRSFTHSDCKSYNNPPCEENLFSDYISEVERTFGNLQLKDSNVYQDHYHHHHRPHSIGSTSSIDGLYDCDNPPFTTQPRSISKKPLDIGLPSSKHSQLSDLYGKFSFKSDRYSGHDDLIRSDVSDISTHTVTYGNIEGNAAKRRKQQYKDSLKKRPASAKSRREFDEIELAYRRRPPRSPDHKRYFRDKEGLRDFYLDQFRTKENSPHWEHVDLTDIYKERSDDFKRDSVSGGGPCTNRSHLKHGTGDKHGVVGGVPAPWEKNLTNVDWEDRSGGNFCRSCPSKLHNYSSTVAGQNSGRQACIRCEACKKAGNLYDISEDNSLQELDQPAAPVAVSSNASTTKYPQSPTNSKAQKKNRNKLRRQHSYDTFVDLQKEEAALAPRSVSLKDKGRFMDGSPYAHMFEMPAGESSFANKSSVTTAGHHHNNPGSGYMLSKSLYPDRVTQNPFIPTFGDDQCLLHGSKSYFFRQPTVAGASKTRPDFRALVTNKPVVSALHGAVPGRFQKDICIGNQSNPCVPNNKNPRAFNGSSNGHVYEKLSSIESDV
UniProt Q01098: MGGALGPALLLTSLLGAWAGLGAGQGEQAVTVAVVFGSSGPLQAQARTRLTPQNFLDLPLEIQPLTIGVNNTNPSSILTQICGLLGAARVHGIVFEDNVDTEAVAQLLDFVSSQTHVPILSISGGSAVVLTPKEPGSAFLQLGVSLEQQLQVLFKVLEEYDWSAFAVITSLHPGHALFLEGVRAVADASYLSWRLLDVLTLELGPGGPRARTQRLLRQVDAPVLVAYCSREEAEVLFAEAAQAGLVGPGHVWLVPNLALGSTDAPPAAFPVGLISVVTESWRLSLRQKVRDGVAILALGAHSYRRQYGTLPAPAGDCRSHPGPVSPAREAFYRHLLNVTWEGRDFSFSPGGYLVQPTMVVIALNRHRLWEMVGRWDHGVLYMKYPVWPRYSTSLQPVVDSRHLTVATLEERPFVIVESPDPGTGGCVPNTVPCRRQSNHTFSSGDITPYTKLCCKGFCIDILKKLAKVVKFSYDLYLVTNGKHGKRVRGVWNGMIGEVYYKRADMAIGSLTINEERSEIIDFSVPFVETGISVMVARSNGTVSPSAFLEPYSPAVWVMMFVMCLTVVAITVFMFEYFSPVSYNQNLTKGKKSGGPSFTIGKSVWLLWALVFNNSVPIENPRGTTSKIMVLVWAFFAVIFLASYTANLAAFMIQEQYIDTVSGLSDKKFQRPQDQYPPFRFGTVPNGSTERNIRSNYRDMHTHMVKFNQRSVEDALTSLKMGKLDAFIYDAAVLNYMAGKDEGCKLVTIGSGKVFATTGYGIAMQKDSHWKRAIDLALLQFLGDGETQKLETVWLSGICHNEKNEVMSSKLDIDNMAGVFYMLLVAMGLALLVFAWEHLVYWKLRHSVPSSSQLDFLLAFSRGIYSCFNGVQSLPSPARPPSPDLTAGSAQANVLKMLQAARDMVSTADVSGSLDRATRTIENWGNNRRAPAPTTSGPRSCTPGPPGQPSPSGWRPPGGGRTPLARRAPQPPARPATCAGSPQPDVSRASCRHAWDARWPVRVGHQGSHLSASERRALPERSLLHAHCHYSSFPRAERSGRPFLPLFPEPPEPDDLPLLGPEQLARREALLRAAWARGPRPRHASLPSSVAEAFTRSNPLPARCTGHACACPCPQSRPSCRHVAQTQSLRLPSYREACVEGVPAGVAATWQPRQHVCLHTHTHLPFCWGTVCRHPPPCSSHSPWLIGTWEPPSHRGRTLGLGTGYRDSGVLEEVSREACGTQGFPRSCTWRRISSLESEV
UniProt A2AIR5: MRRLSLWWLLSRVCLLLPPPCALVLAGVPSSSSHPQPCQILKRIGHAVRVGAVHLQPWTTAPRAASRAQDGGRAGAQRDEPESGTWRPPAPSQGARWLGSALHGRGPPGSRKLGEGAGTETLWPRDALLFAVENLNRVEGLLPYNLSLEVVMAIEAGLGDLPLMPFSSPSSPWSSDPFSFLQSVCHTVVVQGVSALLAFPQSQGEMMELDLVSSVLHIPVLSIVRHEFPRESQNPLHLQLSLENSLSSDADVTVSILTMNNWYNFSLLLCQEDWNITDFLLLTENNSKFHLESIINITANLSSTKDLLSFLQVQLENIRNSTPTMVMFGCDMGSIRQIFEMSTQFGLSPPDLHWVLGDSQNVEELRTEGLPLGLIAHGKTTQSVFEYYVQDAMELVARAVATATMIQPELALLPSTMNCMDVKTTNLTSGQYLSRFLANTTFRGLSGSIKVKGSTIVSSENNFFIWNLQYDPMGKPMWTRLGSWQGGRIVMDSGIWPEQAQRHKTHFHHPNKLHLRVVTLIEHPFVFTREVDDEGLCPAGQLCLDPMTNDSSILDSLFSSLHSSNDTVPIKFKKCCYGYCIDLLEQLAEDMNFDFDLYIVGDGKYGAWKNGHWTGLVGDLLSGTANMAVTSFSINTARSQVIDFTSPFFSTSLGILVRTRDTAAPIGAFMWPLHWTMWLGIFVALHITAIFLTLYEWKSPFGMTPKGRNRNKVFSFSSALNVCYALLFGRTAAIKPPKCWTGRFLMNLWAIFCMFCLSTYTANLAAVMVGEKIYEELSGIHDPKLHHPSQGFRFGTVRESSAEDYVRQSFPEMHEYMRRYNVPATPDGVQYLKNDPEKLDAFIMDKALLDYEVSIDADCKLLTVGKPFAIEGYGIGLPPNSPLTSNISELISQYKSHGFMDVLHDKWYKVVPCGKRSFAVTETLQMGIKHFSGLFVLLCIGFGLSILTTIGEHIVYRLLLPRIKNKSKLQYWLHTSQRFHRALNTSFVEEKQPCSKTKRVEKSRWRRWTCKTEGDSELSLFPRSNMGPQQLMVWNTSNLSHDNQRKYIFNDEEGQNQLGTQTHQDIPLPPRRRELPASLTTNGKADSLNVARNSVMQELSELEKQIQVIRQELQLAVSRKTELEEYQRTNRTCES

Tests used:
[1] = biological target: T1, Glutamate NMDA receptor (Mus musculus) (UniProt P35436+Q91ZU9+Q03391+P35438+Q01097+Q01098+A2AIR5); experiment: Positive allosteric modulation of C57BL/6 mouse NMDA receptor assessed as fold change in compound potentiated NMDA-induced current relative to NMDA current alone in presence of saturating glutamate by patch-clamp method; assay type: tissue-based; settings: Brain, filed as positive allosteric modulator
[2] = biological target: T1, Glutamate NMDA receptor (Mus musculus); experiment: Positive allosteric modulation of C57BL/6 mouse NMDA receptor assessed as fold change in compound potentiated NMDA-induced current relative to NMDA current alone at 30 uM measured after 15 to 30 mins by patch-clamp method; assay type: tissue-based; settings: Brain, filed as positive allosteric modulator, time 15-30 min

`O=C(Nc1cc(Cl)cc(Cl)c1)c1ccc(Cn2nc(C(F)(F)F)cc2C(F)(F)F)o1` gave a fold change (FC) [1] of 13.8 and a fold change (FC) [2] of 13.8.
